Earlier results on one substance are cited in patent publication US9937154B2, “Use of telmisartan to prevent and treat graft versus host disease and other alloimmune and autoimmune diseases” (Hackensack University Medical Center, priority 2015, dated 2018).

The data set concerns transplant patients (IT GVHD). The note with it: at 1 year, vs. historical controls; not statistically significant; cited from earlier work.

maraviroc: the “increase in cancer relapse” value was ~20%.
